Results on three compounds are retold here after patent publication US20060135484A1, “Vesicant treatment with phenyl-thiophene type vitamin d receptor modulators” (published 2006).

SMILES strings stand for the structures.

The data set is described as follows: Mouse hypercalcemia assay.

Consider `CCc1cc(C(CC)(CC)c2ccc(C(=O)O)s2)ccc1OCC(O)C(C)(C)C` (single isomer, unassigned) [Ex. 101], for which the “Mouse Hypercal” value is 12000 µg/kg/day.
Next, `CCC(CC)(c1ccc(CCC(O)C(C)(C)C)c(C)c1)c1cc(C)c(S(=O)(=O)NCC(=O)O)s1` (single isomer, unassigned) [Ex. 181]: over 3000 µg/kg/day.
For `CCCc1cc(C(CC)(CC)c2ccc(C(=O)O)s2)ccc1OCC(O)C(C)(C)C` (single isomer, unassigned) [Ex. 95] the value was over 6000 µg/kg/day.
